# AlphaSeq binding of Ab-14 heavy chain variants to a spike HR2 peptide

From the AlphaSeq antibody data of Li et al. 2023 (doi:10.1038/s41467-023-39022-2), copy in the FLAb collection.

The target is the same throughout: PDVDLGDISGINAS, from the HR2 region of SARS-CoV-2 spike.

The variants keep the light chain, the linker and the frameworks of Ab-14 (scFv order VH, a (GGGGS)3 linker, VL).
VH: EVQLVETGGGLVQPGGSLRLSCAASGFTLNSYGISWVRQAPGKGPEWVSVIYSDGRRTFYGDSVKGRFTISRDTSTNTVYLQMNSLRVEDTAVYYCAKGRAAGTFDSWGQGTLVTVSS
VL: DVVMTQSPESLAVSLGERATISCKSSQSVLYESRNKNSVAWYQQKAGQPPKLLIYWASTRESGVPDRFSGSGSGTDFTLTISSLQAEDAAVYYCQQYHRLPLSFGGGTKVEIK

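The starting antibody came from a phage panning campaign against this peptide. This is the validation round: designs drawn from the data on random variants, tested in the same kind of assay. Several design methods are mixed in this list. AlphaSeq pools MATa yeast showing the antibodies with MATalpha yeast showing the peptide. Mating (16 h, 30 °C) was followed by selection of diploids and sequencing of their barcodes. Read counts were normalised to the haploid input and turned into Kd by a linear fit to BCL2-family pairs of known affinity, for each replicate. Mating was done six times.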

Sequences are complete VH domains. The Kd shown is the geometric mean over detected replicates; a lower Kd is a better binder. An entry "no signal" has no value in the source: the pair was not observed among the diploids in any replicate. This suggests poor binding but is not conclusive. Three control strains display no target. For all heavy chain designs, 1% of the pairings with them gave a signal, with a median of 120 nM and one signal in twenty below 7.0 nM, so weak values seen in few replicates may be background. A sequence measured in both rounds can read differently, since the two assays cover different ranges. Of ten entries with the parent sequence, four were seen in most replicates (averages 2.2 nM to 240 nM), three in one and three in none, so single entries are noisy. The authors averaged sequences with at least three values out of six and counted those with two or fewer as poor binders. Where one sequence has several entries in the source, the replicates are pooled.

| VH | Kd (apparent) | replicates with signal |
|---|---|---|
| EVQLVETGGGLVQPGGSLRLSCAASGFGLDEYGISWVRQAPGKGPEWVSVIFADGQRKYYADNVKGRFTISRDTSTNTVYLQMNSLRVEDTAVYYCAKGHFGEDGVVWGQGTLVTVSS | no signal | 0 of 6 |
| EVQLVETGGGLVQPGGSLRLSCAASGFNLDEYGISWVRQAPGKGPEWVSVIYADGRRTAYADSVKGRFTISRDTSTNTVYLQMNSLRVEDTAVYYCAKGNQAGTFDVWGQGTLVTVSS | 50 pM | 6 of 6 |
| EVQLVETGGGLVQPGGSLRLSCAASGFDLNSYGISWVRQAPGKGPEWVSVIYSDGRRTFYSDSVKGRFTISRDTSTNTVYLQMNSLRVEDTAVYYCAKGLAGGTFDSWGQGTLVTVSS | 6.8 nM | 2 of 6 |
| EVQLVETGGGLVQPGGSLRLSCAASGFDLDEYGISWVRQAPGKGPEWVSVIYADGRRTFYADSVKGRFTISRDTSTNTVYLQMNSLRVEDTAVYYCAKGENAGTFDTWGQGTLVTVSS | 740 pM | 6 of 6 |
| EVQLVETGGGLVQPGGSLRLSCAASGFDLNEYGISWVRQAPGKGPEWVSVIYADGQRTAYADSVKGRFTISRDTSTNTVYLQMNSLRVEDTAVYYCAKGKVAGTFDIWGQGTLVTVSS | 690 pM | 6 of 6 |
| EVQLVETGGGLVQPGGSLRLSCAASGFNLNSYGISWVRQAPGKGPEWVSVIYSDGRRTFYADSVKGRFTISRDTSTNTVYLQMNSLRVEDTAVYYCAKGRNAGTFDTWGQGTLVTVSS | 2.6 nM | 6 of 6 |
| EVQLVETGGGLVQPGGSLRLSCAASGFDLNSYGISWVRQAPGKGPEWVSVIYSDGRRTFYADKVKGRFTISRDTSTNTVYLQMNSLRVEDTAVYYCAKGNAAGTFDSWGQGTLVTVSS | 2.7 nM | 6 of 6 |
| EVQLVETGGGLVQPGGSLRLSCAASGFTLNSYGISWVRQAPGKGPEWVSVIYADGRRTFYGDVVKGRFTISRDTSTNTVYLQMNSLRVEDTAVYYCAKGRAAGTPKSWGQGTLVTVSS | no signal | 0 of 6 |
| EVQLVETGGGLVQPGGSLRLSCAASGFDLNEYGISWVRQAPGKGPEWVSVIYADGKRTAYTDSVKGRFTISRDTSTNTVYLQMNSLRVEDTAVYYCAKGTNAGTFDMWGQGTLVTVSS | 330 pM | 6 of 6 |
| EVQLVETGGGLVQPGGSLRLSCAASGFDLNEYGISWVRQAPGKGPEWVSVIYADGKRTAYADNVKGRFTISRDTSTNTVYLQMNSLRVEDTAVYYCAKGNTAGTFDVWGQGTLVTVSS | 510 pM | 6 of 6 |
| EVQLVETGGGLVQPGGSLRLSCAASGFDLNEYGISWVRQAPGKGPEWVSVIYADGRRTFYADSVKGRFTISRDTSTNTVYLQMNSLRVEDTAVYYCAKGELAGTFDLWGQGTLVTVSS | 1.5 nM | 6 of 6 |
| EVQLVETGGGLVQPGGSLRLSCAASGFTLDSYGISWVRQAPGKGPEWVSVIYSDGERTFYGDSVKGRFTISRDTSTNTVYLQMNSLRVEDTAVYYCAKGRAAGTFWSWGQGTLVTVSS | no signal | 0 of 6 |
| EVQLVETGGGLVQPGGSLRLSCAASGFDLNEYGISWVRQAPGKGPEWVSVIYADGMRTAYADSVKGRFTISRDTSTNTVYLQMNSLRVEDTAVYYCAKGQVAGTFDLWGQGTLVTVSS | 490 pM | 6 of 6 |
| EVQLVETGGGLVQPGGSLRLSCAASGFDLNTYGISWVRQAPGKGPEWVSVIYSDGRRTFYGDSVKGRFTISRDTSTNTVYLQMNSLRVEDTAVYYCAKGKTAGTFDSWGQGTLVTVSS | 6.8 nM | 6 of 6 |
| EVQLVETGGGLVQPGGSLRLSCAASGFELNEYGISWVRQAPGKGPEWVSVIYSDGRRTFYGDHVKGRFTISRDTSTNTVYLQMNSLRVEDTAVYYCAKGRTAGTFDSWGQGTLVTVSS | 30 nM | 5 of 6 |
| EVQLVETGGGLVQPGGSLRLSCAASGFDLNEYGISWVRQAPGKGPEWVSVIYADGRRTAYSDSVKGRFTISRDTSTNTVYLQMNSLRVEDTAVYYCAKGQNAGTFDSWGQGTLVTVSS | 540 pM | 6 of 6 |
| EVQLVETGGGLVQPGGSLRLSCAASGFTLNDYGISWVRQAPGKGPEWVSVIYSDGRRTWYGDSVKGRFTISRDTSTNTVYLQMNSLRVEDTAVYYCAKGRAAGTFDSWGQGTLVTVSS | 17 nM | 12 of 12 |
| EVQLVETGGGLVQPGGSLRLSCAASGETLNSYGISWVRQAPGKGPEWVSVIYSDGKRTFYGDSVKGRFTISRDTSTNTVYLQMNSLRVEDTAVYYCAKGRAAKTFDSWGQGTLVTVSS | no signal | 0 of 6 |
| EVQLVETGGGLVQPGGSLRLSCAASGFSLNSYGISWVRQAPGKGPEWVSVIYSDGRRTFYGDSVKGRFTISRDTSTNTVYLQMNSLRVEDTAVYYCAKGRVAGTFDSWGQGTLVTVSS | 2.9 nM | 6 of 6 |
| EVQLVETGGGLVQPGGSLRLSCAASGFTLNSYGISWVRQAPGKGPEWVSVIYSDGRRTFYSDSVKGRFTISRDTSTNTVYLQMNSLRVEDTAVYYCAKGMAGGTFDVWGQGTLVTVSS | 13 nM | 4 of 6 |
| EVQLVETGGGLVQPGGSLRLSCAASGFDLNEYGISWVRQAPGKGPEWVSVIYADGRRTFYSDSVKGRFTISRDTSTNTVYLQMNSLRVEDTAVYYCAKGNLAGTFDSWGQGTLVTVSS | 610 pM | 6 of 6 |
| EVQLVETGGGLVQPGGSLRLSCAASGFDLNSYGISWVRQAPGKGPEWVSVIYSDGRRTFYLDSVKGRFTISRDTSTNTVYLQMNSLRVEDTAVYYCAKGQTAGTFDSWGQGTLVTVSS | 1.4 nM | 6 of 6 |
| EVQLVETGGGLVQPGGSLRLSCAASGFDLQEYGISWVRQAPGKGPEWVSVIYADGLREAYSEKVKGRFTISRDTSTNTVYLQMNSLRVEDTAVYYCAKGQLMGYFSFWGQGTLVTVSS | no signal | 0 of 6 |
| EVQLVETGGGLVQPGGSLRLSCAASGFDLNEYGISWVRQAPGKGPEWVSVIYADGLRTAYADSVKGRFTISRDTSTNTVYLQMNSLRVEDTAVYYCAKGQNAGTFDVWGQGTLVTVSS | 470 pM | 6 of 6 |